From PubChem BioAssay AID493056 (National Center for Advancing Translational Sciences (NCATS), 2011) come the findings set out here.

Chains of the proteins cited; added tags and fusions are not shown.
UniProt P34981, whole entry: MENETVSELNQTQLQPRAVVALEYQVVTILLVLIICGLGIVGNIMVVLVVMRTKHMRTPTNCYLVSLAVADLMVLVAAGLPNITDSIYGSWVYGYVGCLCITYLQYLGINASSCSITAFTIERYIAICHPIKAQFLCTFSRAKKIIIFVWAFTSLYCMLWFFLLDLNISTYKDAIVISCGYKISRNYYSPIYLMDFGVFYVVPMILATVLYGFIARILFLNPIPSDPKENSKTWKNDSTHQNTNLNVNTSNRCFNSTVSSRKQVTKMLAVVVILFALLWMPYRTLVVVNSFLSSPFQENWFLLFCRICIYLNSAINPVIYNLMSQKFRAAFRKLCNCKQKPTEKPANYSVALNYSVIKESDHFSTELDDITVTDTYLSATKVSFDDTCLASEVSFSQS

The list shows a part of the results, in another mix than the full data. Activity calls are given as the source filed them. Cut-off read from the data, not from the text of the source: active = enhancement above about 30%; inactive = the rest.

The target in this test is Thyrotropin-releasing hormone receptor (Homo sapiens) (UniProt P34981). Nature of the test: qHTS for Small Molecule Agonists and Allosteric Enhancers of Human TRH Receptor: Primary Screen for Enhancers. Note: 0% is about no effect. To be noted: TRHR cells, fluo-8 calcium fluorescence, EC20 TRH enhancement; at 2 µM; stronger effect = higher value. The method in brief:
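TRHR-expressing cells loaded with fluo-8 calcium dye were read kinetically (ex 480/em 530) during compound addition, then stimulated with an EC20 of TRH (10 nM final). Enhancement of the Gq-mediated intracellular calcium response was scored.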
For orientation: qHTS replaces the single test concentration by a dilution series.
For the compound `CCc1ccc(OP(C)(=O)Nc2cccnc2)cc1` (configuration not stated), the enhancement is inactive: -1.46%. Take `COc1ccccc1OP(C)(=O)Nc1ccccc1Br` (configuration not stated): the enhancement is inactive: -1.64%. With `CC(C)(C)c1ccc(OP(C)(=O)O)cc1` the figure was inactive: -10.2%; with `CP(=O)(Nc1ccc(Cl)cc1)Oc1ccc(F)cc1` (configuration not stated), inactive: 6.95%. As for `CN(C)C(=O)c1c([N+](=O)[O-])cc([N+](=O)[O-])cc1[N+](=O)[O-]`, the figure is inactive: -2.33%; as for `CP(=O)(Nc1ccc(SC(F)(F)F)cc1)Oc1ccc(F)cc1` (configuration not stated), inactive: 12.3%; as for `CCOP(C)(=S)SCC(=O)NC(C)(CC)C(=O)O` (configuration not stated), inactive: -1.09%. As for `CP(=O)(Nc1ccc2c(c1)OCCO2)Oc1ccccc1` (configuration not stated), the figure is inactive: -0.369%. As to `Cc1ccccc1NP(C)(=O)Nc1ccccc1C`, the enhancement is inactive: 0.592%. With `COc1ccc(OP(C)(=O)Nc2cccc(Br)c2)cc1` (configuration not stated) the figure was inactive: -0.827%; with `CN(C)CCOC(=O)C(O)(c1ccccc1)C1CCCCC1` (configuration not stated), inactive: -4.87%.

Regarding `COc1ccc(NP(C)(=O)Oc2ccccc2OC)cc1` (configuration not stated), the enhancement is inactive: 1.86%. With `O=[N+]([O-])c1ccc(OP2(=O)COCCO2)cc1` (configuration not stated) the figure was inactive: 7.86%; with `Cc1cc(-c2cccc3ccccc23)c(C)cn1.O=[N+]([O-])c1cc([N+](=O)[O-])c(O)c([N+](=O)[O-])c1`, inactive: -2.14%; with `CCOC(=O)c1ccc(NP(C)(=O)Oc2ccc(F)cc2)cc1` (configuration not stated), inactive: 15.6%.

As to `COc1ccc(OP(C)(=O)Nc2ccc(SC(F)(F)F)cc2)cc1` (configuration not stated), the enhancement was inactive: 2.68%. As for `CCN(CC)CCCOC(=O)C(O)(c1ccccc1)C1CCCCC1` (configuration not stated), the figure is inactive: -15.5%; as for `CP(=O)(Nc1ccccc1)Oc1ccc(F)cc1` (configuration not stated), inactive: 2.03%. `CCCCCOc1ccc(NP(C)(=O)Oc2ccc(Cl)cc2Cl)cc1` (configuration not stated): the enhancement was inactive: -3.1%. As for `CP(=O)(Nc1ccccc1F)Oc1ccccc1` (configuration not stated), the figure is inactive: -6.25%; as for `CC(C)c1ccc(OP(C)(=O)Nc2ccc(SC(F)(F)F)cc2)cc1` (configuration not stated), inactive: 1.68%. In the case of `O=C(OCCN1CCN(CCOCc2ccccc2)CC1)C(O)(c1ccccc1)c1ccccc1`, the enhancement is inactive: -1.86%.
